Reference: patent US20250339425A1 (Northeastern University, priority 2024, published 2025)

Tested on: CFA-induced inflammatory pain in mice
Conditions: mouse, in vivo

In the case of `CC[N+]1(C)CCN(c2ccc(NC(=O)c3cccc(C)n3)cc2)CC1` [Compound II, 1-Ethyl-1-methyl-4-(4-(6-methylpicolinamido)phenyl)piperazin-1-ium iodide], the “antinociceptive effect in WT vs α7 nAChR KO mice” value is reported as “essentially the same in both WT and α7 nAChR KO animals”, the “mechanical thresholds (von Frey) in CFA-treated mice” value is reported as “elevated” and the “von Frey responses in sham-treated mice” value is reported as “did not alter von Frey responses”.
